{"sequences": {"note": "Chains of the proteins cited; added tags and fusions are not shown. Lines headed by an entry give the natural chain unless they say otherwise; changes in a name come on top.", "UniProt P43116": "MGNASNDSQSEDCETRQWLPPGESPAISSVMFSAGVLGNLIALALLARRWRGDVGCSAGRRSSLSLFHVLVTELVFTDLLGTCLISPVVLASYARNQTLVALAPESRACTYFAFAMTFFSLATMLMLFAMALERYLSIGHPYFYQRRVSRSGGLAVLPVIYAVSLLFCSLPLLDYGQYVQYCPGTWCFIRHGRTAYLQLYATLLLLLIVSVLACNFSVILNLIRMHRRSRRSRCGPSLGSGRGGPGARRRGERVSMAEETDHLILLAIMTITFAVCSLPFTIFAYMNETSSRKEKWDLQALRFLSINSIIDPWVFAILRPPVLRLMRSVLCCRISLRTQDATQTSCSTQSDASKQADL"}, "source": "patent US7442702B2", "about": "“Prostaglandin agonists” (priority 1997, dated 2008)", "biological_target": "T1, human EP2 receptor (Homo sapiens, UniProt P43116)", "T1 construct": "cDNAs representing the complete open reading frames of the human EP2 and EP4 receptors; expressed in transfected cells", "assay": "Scatchard analysis of specific [3H]PGE2 binding in 293-S line stably overexpressing recombinant human EP2", "settings": "read-out: Kd for PGE2 (EP2), 293-S/EP2 line selected for compound screening, approximately 338,400 receptors per cell", "note": "pKd: −log10 of the molar value."}
{"smiles": "CCCCC[C@H](O)/C=C/[C@H]1[C@H](O)CC(=O)[C@@H]1C/C=C\\CCCC(=O)O", "note": "[PGE2, Prostaglandin E2]", "values": [{"measurement": "pKd", "value": 7.92}]}
